# The entries are a selection whose mix differs from that of the whole data set. Records with an inconclusive call do not appear. Calls of active or inactive are those of the source. The call rests on the fitted dose curve; in most records, active means well fitted inhibition curve with a large enough effect; inconclusive means small, poorly fitted or top-dose-only effect, or effect the other way; inactive means flat fitted curve, though single readings scatter.
# By UniProt entry, the sequences of proteins in these tests, tags left out.
# UniProt Q01196, whole entry, looked up: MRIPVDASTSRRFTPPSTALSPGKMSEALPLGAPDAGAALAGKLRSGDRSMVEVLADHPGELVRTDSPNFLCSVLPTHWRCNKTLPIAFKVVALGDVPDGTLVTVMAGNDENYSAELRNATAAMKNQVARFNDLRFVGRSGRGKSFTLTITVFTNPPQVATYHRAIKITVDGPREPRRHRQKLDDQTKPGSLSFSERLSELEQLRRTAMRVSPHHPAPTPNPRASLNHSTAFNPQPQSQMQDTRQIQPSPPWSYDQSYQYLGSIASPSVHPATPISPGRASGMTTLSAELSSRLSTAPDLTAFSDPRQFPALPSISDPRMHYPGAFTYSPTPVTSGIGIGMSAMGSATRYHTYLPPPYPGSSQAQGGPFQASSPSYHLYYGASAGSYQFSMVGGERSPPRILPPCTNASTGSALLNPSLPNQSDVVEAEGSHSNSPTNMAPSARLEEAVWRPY
# UniProt Q13951, whole entry, looked up: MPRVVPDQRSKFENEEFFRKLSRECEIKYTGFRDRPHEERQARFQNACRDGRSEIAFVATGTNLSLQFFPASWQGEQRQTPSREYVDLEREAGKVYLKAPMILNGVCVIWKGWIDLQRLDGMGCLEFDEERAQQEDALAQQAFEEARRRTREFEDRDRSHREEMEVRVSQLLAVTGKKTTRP
# Molecular target: Runt-related transcription factor 1 (Homo sapiens) + Core-binding factor subunit beta (Homo sapiens) (UniProt Q01196+Q13951)
# Assay: qHTS Assay for Compounds Blocking the Interaction Between CBF-beta and RUNX1 for the Treatment of Acute Myeloid Leukemia: Hit Validation; further: nearly all actives have a fitted effect of over 60% in size
# Conditions: AlphaScreen CBFb-His/RUNX1-biotin binding; at 59.8 µM (top of the series)
# On the % scale 0 is the no-effect control and ±100 the full control effect.
row,Compound,"activity, negative = inhibition"
1,Nc1cccc([As](=O)(O)c2ccccc2)c1,inactive: -7.75%
2,Nc1ccccc1[As](=O)(O)c1ccccc1,inactive: -3.37%
3,O=[As](O)(O)c1cccnc1,inactive: -1.13%
4,COc1cc(I)ccc1[As](=O)(O)O,inactive: -0.653%
5,O=[As](O)(c1ccc(O)cc1)c1ccccc1O,inactive: -19.4%
6,CCOC(=O)Nc1ccc([As](=O)(O)O)c(O)c1,inactive: -5.75%
7,O=P(Nc1nc2ccc(Cl)cc2s1)(c1ccccc1)c1ccccc1,inactive: -13%
8,O=[As](O)(c1ccccc1)c1ccc(O)cc1,inactive: -12.2%

# Reference: PubChem BioAssay AID504374 (National Center for Advancing Translational Sciences (NCATS), 2011)
